# Yeast mating assay B: variants of the scFv Ab-14

The measurements come from Li et al. 2023 (doi:10.1038/s41467-023-39022-2) through the FLAb antibody collection.

Target: peptide PDVDLGDISGINAS, taken from heptad repeat 2 (HR2) of SARS-CoV-2 spike.

Parent scFv Ab-14: VH joined to VL by a 15-residue (Gly4Ser)3 linker. Changes lie in the heavy chain CDRs alone.
VH: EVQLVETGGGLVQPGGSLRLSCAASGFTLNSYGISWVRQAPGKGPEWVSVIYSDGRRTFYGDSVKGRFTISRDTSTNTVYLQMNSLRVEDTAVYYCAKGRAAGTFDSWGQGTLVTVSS
VL: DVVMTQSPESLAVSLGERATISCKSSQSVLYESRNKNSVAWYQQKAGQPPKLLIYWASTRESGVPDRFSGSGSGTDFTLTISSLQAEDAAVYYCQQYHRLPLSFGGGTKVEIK

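Phage display of a naive human antibody library on the peptide gave the parent. Designed CDR sequences, proposed from the first random library and measured here. Several design methods are mixed in this list. AlphaSeq pools MATa yeast showing the antibodies with MATalpha yeast showing the peptide. Mating (16 h, 30 °C) was followed by selection of diploids and sequencing of their barcodes. The ratio of observed to expected reads was calibrated, replicate by replicate, on BCL2-family standards whose Kd was known from biolayer interferometry. Mating was done six times.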

Variants are written as CDR1, CDR2 and CDR3 of the heavy chain (limits as in the source). Parent: GFTLNSYGIS, VIYSDGRRTFYGDSVK, GRAAGTFDS.
This list holds designs with at most six substitutions.
Values are log10 of the apparent Kd in nM; lower means stronger binding.
The mean shown is taken over the replicates in which the pair was detected.
"nd" means that the variant was in the library but no mating with the target was seen in that replicate; the authors take this as a sign of poor binding, and no number exists.
The range of this assay differs from that of the first round, and the authors advise against merging the two.
The authors' rule: three or more of the six replicates give a measured affinity, fewer mean a poor binder.
A sequence that the file lists under several names has all its replicates listed entry by entry, parted by semicolons.
Nonspecific signal, from three strains lacking the peptide, appeared in 1% of pairings of all heavy chain designs, centred on 2.08 (5% of these signals below 0.84); values are not corrected for it.

The variant GFSLNDYGIS / VIYSDGRRTFYGDSVK / GRAAGTFVS gave nd, 0.94, nd, nd, nd, nd. With GFTLNSYGIS / VIYSDGRRTYYGDSVK / GQNAGTFDS the result was nd, 0.29, nd, 1.10, 0.19, nd (mean 0.53). For GFDLNSYGIS / VIYSDGRRTFYGDSVK / GRYAGTFDS, the assay gave 1.35, 0.85, 0.17, 0.15, 0.37, 0.57 (mean 0.58). The variant GFNLNSYGIS / VIYSDGRRTFYGDSVK / GRAMGTFDS showed nd, nd, nd, nd, nd, nd. With GFELNSYGIS / VIYSDGKRTFYADNVK / GRTAGTFDS the result was -0.21, -0.29, -0.48, -0.35, 0.48, 0.04 (mean -0.13). For GFTLNSYGIS / VIYSDGMRTFYGDSVK / GRAAGHFDS, the assay gave nd, nd, nd, nd, nd, nd.

The variant GFTLNSYGIQ / VIYSDGRRTFYGDSVK / GIAAGFIDS showed nd, nd, nd, nd, nd, nd. For GFTLNSYGIS / VIYSDGRRTFYDDSVK / GMLAGTFDS, the assay gave 1.26, 1.39, 0.79, 2.28, 1.12, 1.14 (mean 1.33). The variant GFHLNDYGIS / VIYSDGRRTFYIDSVK / GRAAGTFDS gave 0.86, 0.13, 0.78, 0.53, 0.85, nd (mean 0.63). For GFTLNEYGIS / VIYSDGRRTFYGDSVK / GRAAGTFRQ, the assay gave nd, nd, nd, nd, nd, nd. The variant GFDLNSYGIS / VIYSDGRRTFYGDSVK / GEAAGIFDS gave nd, nd, nd, nd, nd, nd. The variant GFKLNEYGIS / VIYSDGRRTFYGDSVK / GRNAGTFDS showed -0.17, 0.03, -0.10, -0.25, -0.20, -0.12 (mean -0.13).

With GFTLNEYGIS / VIYSDGRRTFYADSVK / GREAGTFDS the result was nd, nd, nd, nd, 1.99, nd. For GFTLNEYGIS / VIYSDGRRTFYADSVK / GRWAGTFDS, the assay gave 0.29, -0.01, 0.26, -0.14, 0.63, 0.09 (mean 0.19). For GFTLNMYGIS / VIYSDGRRTFYGDSVV / GGAAGTFDS, the assay gave nd, nd, nd, nd, nd, nd. The variant GFTLNSYGIS / VIYSDGRRTFYSDSVK / GSVAGTFDS gave 0.53, 0.01, -0.11, -0.14, 0.46, 0.55 (mean 0.22). For GFSLNEYGIS / VIYSDGRRTFYADSVK / GRTAGTFDT, the assay gave 0.00, -0.05, -0.19, -0.32, -0.15, -0.24 (mean -0.16). For GFHLNSYGIS / VIYSDGRRTFYIDSVK / GKTAGTFDS, the assay gave nd, 2.60, 2.20, 3.26, 2.37, 2.77 (mean 2.64).

With GFSLNQYGIS / VIYSDGRRTFYGDSVK / GRAAVTFDQ the result was nd, nd, nd, nd, nd, nd. For GFTLRSYGIS / VIYVDGRRTFPGDSVK / GPAAGTALS, the assay gave nd, nd, nd, nd, nd, nd. The variant GNTLNSYGIS / VIYADGRRTFYGDSVK / GRAAGTFDS showed -0.26, 0.35, -0.44, 1.15, -0.25, -0.20 (mean 0.06). The variant DFTLNSYGIS / VIYSDGRRTFYDDSVK / GQEAGTFDS showed nd, nd, nd, nd, nd, nd. The variant GFSLNSYGIS / VIYSDGMRTFYGDQVK / GFAAGGFDS showed nd, nd, 1.29, nd, 3.94, 2.32 (mean 2.52). With GFTLNEYGIS / VIYSDGRRTFYSDDVK / GEAAGTFKS the result was 1.61, nd, nd, -0.38, 0.96, 0.03 (mean 0.55).

With GFKLNEYGIS / VIYSDGRRTFYGDSVK / GKAAGTFDL the result was 0.45, -0.54, 0.44, -0.10, -0.09, 0.78 (mean 0.15). The variant GFGLNSYGIS / VIYSDGRRTFYGDSVK / GQAAGTFDS gave 0.58, nd, nd, -0.24, nd, nd (mean 0.17). For GFDLNSYGIS / VIYSDGRRTFYQDSVK / GRVAGTFDI, the assay gave 0.38, 0.17, 0.81, 0.02, 0.31, 0.50 (mean 0.37). The variant GFSLNSYGIS / VIYSDGRRTFYADSVK / GNEAGTFDS gave -0.42, -0.20, -1.05, -0.60, -0.96, -0.60 (mean -0.64). For GFTLNSYGIS / VIYSDGRRTFYKDSVK / GQAAGTFDL, the assay gave 1.20, 2.62, 2.24, 1.97, 2.34, 2.50 (mean 2.15). The variant GFTLNSYGIS / VIYSDGRRTAYGDSVK / GRAAGTFDS showed 0.99, 0.56, 0.64, 1.65, 0.88, 0.65; nd, nd, 1.41, nd, nd, nd (mean 0.97).

The variant GFTLNDYGIS / VIYSDGRRTQYIDSVK / GLAAGNFDS showed nd, nd, nd, nd, nd, nd. The variant GFTLNSYGRS / VIYSDGRRTFYKDSVK / GRAAGTFDS showed nd, nd, nd, nd, nd, nd. The variant KFSLNEYGIS / VIYSDGKRTFYGDSVK / GRTAGTFDS gave -0.47, 0.22, -0.17, -0.31, 0.08, 0.39 (mean -0.04). For GFSLNNYGIS / VIYSDGRRTFYTDSVK / GQTAGTFDS, the assay gave 0.15, 0.08, -0.06, -0.45, -0.32, -0.02 (mean -0.10). With GFTLNSYGIS / VIYSDGMRTAYGDSVK / GRAAGTFDS the result was 1.89, nd, 1.73, 0.89, 1.07, nd (mean 1.39). With GFTLKSYGIS / VIYSDGRRTFYDDSVK / GQLAGTFDS the result was nd, 2.34, 2.50, 2.17, 0.87, 1.56 (mean 1.89).

For KFSLNCYGIS / VIYSDGRRTFYGDSVK / GRTAGTFDS, the assay gave nd, nd, nd, nd, nd, nd. For GETLNSYGIS / VIYSDGMRTFYGDSVK / GRAAGTFDS, the assay gave nd, nd, nd, nd, 1.44, nd. With GFTLESYGIS / VIYSDGRRTFYGDSVK / GDMAGTSTS the result was nd, nd, nd, nd, nd, nd. The variant GFDLNSYGIS / VIYSDGKRTAYGDSVK / GRAAGTFDS gave -0.01, -0.14, -0.06, -0.25, -0.04, 0.19 (mean -0.05). The variant GFELNSYGIS / VIYSDGRRTFYGDSVK / GQTAGTFDA gave -0.10, 0.40, 0.10, 0.18, nd, 0.59 (mean 0.23). With GFSLNSYGIS / VIYSDGRRTFYSDSVK / GREAGTFDK the result was -0.07, -0.33, -0.36, -0.24, -0.43, -0.32 (mean -0.29).

The variant GFSLNDYGIS / VIYSDGRRTFYGDSVK / GRTAGTFDD gave 0.58, 0.08, nd, nd, nd, nd (mean 0.33). The variant GFDLNSYGIS / VIYSDGRRTFYDDSVK / GMLAGTFDS showed -0.31, -0.25, -0.25, -0.87, -0.73, -0.06 (mean -0.41). For GFTLNSYGIS / VIYPDGRRTFYGDSVK / GRLAGTFDS, the assay gave 2.01, 1.62, 1.61, 1.78, 1.61, 3.72 (mean 2.06). The variant GFNLNSYGIS / VIYSDGRRTFYGDSVK / GRGAGTFDS gave 1.78, 1.67, 1.42, 3.15, 2.43, 2.31 (mean 2.13). The variant GFQLNEYGIS / VIYSDGRRTMYGDSVK / GRAAGTFDS showed 0.35, 0.46, 0.83, 0.65, 0.68, 1.19 (mean 0.69).

5 of these entries, quoted again:

CDR-H1,CDR-H2,CDR-H3,"replicates, log10 nM",mean log10 Kd (nM)
GFTLNSYGIS,VIYSDGMRTFYGDSVK,GRAAGHFDS,"nd, nd, nd, nd, nd, nd",nd
GFSLNDYGIS,VIYSDGRRTFYGDSVK,GRAAGTFVS,"nd, 0.94, nd, nd, nd, nd",0.94
GFSLNEYGIS,VIYSDGRRTFYADSVK,GRTAGTFDT,"0.00, -0.05, -0.19, -0.32, -0.15, -0.24",-0.16
GFNLNSYGIS,VIYSDGRRTFYGDSVK,GRAMGTFDS,"nd, nd, nd, nd, nd, nd",nd
GFDLNSYGIS,VIYSDGRRTFYGDSVK,GEAAGIFDS,"nd, nd, nd, nd, nd, nd",nd